Experimental data from patent US8426447B2, “Spiro-tricyclic ring compounds as beta-secretase modulators and methods of use” (Amgen Inc., priority 2008, dated 2013).

Amino acid sequences for entries named in this document (tags omitted). Residues count along the entry.
UniProt P56817, 46-501, species assumed: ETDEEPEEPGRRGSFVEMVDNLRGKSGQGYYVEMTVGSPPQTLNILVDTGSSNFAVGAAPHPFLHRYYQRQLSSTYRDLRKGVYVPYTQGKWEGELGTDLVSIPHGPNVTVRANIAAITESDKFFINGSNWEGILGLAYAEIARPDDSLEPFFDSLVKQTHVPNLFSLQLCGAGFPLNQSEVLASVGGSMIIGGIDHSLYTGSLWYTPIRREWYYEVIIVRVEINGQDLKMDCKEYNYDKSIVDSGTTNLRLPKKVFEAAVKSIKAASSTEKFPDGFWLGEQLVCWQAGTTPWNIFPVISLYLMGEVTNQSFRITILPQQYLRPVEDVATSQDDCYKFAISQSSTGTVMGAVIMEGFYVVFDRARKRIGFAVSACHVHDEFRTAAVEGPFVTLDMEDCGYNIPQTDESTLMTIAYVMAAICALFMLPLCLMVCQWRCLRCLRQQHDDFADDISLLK

Columns and labels:
BACE1 [1] = molecular target: T1, BACE1 (Homo sapiens, UniProt P56817); assay: In Vitro BACE Cell-based Assay (HEK cell assay): Aβ40 in conditioned medium of cells stably expressing Amyloid Precursor Protein, sandwich ELISA; conditions: HEK cell assay (uM), IC50 class symbols
Protocol: In Vitro BACE Cell-based Assay
The cell-based assay measures inhibition or reduction of Aβ40 in conditioned medium of test compound treated cells expressing amyloid precursor protein.
Cells stably expressing Amyloid Precursor Protein (APP) were plated at a density of 40K cells/well in 96 well plates (Costar). The cells were cultivated for 24 hours at 37° C. and 5% CO2 in DMEM supplemented with 10% FBS. The test compounds were then added to cells in 10-point dose response concentrations with the starting concentration being either 100 μM or 10 μM. The compounds were diluted from stock solutions in DMSO and the final DMSO concentration of the test compounds on cells was 0.1%. After 24 h of incubation with the test compounds the supernatant conditioned media was collected and the Aβ 40 levels were determined using a sandwich ELISA. The IC50 of the compound was calculated from the percent of control or percent inhibition of Aβ 40 as a function of the concentration of the test compound. […]
Cellular supernatants were incubated with the capture antibody for 3 h at 4° C., followed by 3 wash steps in TBS-tween (0.05%). […] The final readout of the ELISA is Time-Resolved Fluorescence (counts per minute) using Delfia reagents Streptavidin-Europium and Enhancement solutions (Perkin Elmer) and the Victor 2 multilabel counter (Perkin Elmer).

BACE1 [2] = molecular target: T1, BACE1; assay: In Vitro Enzymatic BACE FRET (Fluorescence Resonance Energy Transfer) Assay; assay type: biochemical; conditions: BACE1 FRET assay (uM), in vitro BACE FRET enzyme assay, IC50 class symbols
Protocol: In Vitro Enzymatic BACE FRET (Fluorescence Resonance Energy Transfer) Assay (Enzyme Assay Data in the Example Tables I, II, III & IV) The assay buffer used in this screen is 0.05 M acetate, pH 4.2, 10% DMSO final, 100 uM genapol (which is a nonionic detergent, below its Critical Micelle Concentration). […] This assay is effectively started by the addition of FRET substrate (50 nM) and the combination is incubated for one hour. The FRET assay is terminated with by addition of Tris buffer, which raises the pH to neutrality, and the fluorescence is determined. The FRET substrate is a peptide with commercially available fluorophore and quencher, on opposite sides of the BACE cleavage site. […]

NC1=N[C@@]2(CO1)c1cc(-c3cccnc3F)ccc1Oc1cnc([C@H]3CCCCO3)cc12 [compound 370]
IC50 (BACE1 [1]): < 0.1 µM
IC50 (BACE1 [2]): < 0.1 µM
